Biological target: T1, Human rhinovirus A protease (Human rhinovirus sp.) (UniProt Q4U254)
T1 sequence (whole entry): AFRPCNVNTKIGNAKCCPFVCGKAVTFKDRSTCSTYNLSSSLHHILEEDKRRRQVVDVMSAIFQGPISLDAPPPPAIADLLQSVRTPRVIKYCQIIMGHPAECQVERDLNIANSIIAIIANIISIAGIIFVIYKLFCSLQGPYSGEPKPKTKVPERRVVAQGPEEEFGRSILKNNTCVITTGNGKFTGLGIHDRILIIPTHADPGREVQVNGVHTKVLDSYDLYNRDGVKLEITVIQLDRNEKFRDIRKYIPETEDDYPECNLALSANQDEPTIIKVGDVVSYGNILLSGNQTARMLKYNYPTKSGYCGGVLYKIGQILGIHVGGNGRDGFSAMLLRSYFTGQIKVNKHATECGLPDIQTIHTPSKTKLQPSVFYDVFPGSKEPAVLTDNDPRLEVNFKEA
Assay: Binding affinity on human Rhinovirus 3C protease (rhinovirus serotype 2)

In the case of CCOC(=O)/C=C/[C@H](CCC(N)=O)NC(=O)[C@H](Cc1ccccc1)NC(=O)[C@H](CC(C)C)NC(=O)OCc1ccccc1, the K obs / 1 is reported as 3400 M⁻¹ s⁻¹.

Source: ChEMBL document CHEMBL1131037, “Structure-based design, synthesis, and biological evaluation of irreversible human rhinovirus 3C protease inhibitors. 2. Peptide structure-activity studies” (J Med Chem, 1998)
